## OPERA 2.9 data: properties

Values as listed in the OPERA 2.9 repository of K. Mansouri.

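OPERA's authors assembled the values from existing databases and did not measure them anew. The files give a single number for a compound and property, which may rest on several reports. Method, purity and exact conditions of the single measurements are not given. Where a salt, mixture or single isomer is drawn, the source does not say that exactly this form was tested. Some entries may be limits or estimates that an upstream database listed as plain numbers.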

Melting points are in °C. Boiling points are in °C, nominally at 760 mmHg. The octanol-water partition coefficient is given as log10; larger values mean a more lipophilic compound. Solubility in water is on a log10 molar scale (set defined at 25 °C). Vapor pressures (log10 mmHg) refer to near room temperature, 15 to 30 °C; higher is more volatile. The unbound fraction in human plasma runs from 0 (all bound) to 1 (all free). "n/a" marks a cell with nothing listed here.

melting point (°C)	bp (°C)	logP	water solubility (log10 mol/L)	vapor pressure (log10 mmHg)	fu	structure (SMILES)
-91	n/a	n/a	n/a	0.477	n/a	CN(C)CCCN(C)CCCN(C)C
n/a	n/a	-0.84	n/a	-2.928	n/a	COCCOCCOCCOCCOC
n/a	n/a	n/a	-2.69	-5.103	n/a	COc1ccc(C(=O)O)cc1
n/a	n/a	n/a	-0.416	-7.023	n/a	N[C@@H](COP(=O)(O)O)C(=O)O
n/a	253	3.65	-3.927	-1.582	n/a	C=COCC1CCC(COC=C)CC1 (stereo not given)
n/a	n/a	4.6	-6.016	n/a	n/a	O=C1NC(=O)c2ccc3c4cccc5cccc(c6ccc1c2c63)c54
12.7	n/a	1.94	n/a	n/a	n/a	CCCCCCCCCCCCCCCCCCN(CCO)CCCN(CCO)CCO.F.F
152.3	n/a	4.19	n/a	-5.678	n/a	O=C(c1ccccc1)c1ccc(OCC(O)COc2ccc(C(=O)c3ccccc3)c(O)c2)cc1O
n/a	n/a	3.88	-4.172	n/a	n/a	CCC1(C/C=C2\CCCc3cc(OC)ccc32)C(=O)CCC1=O
n/a	278	2.825	-2.251	-2.824	n/a	CCOC(=O)C1CCC(C(=O)OCC)CC1 (stereo not given)
n/a	n/a	0.8	-8.617	n/a	n/a	COc1cc(-c2ccc(N=NC(C(C)=O)C(=O)Nc3ccccc3)c(OC)c2)ccc1N=NC(C(C)=O)C(=O)Nc1ccccc1 (stereo not given)
147.1	n/a	2.58	n/a	-0.824	n/a	Cc1nc(C)n(C)c1C
32.5	n/a	n/a	-1.141	n/a	n/a	COC(=O)CS(=O)(=O)c1ccccc1
n/a	n/a	n/a	-5.031	-2.444	n/a	CC1=CCCC2(C)C(OC=O)C(C)CCC12C (stereo not given)
202	380	6.3	-7.472	n/a	n/a	COc1ccc(/C=C(\C#N)C(=O)OCC(C)(C)C2OCC3(CO2)COC(C(C)(C)COC(=O)/C(C#N)=C/c2ccc(OC)c(OC)c2)OC3)cc1OC (stereo partly drawn)
148	n/a	n/a	n/a	-9.546	n/a	COc1ccccc1C(=O)NS(=O)(=O)c1ccc(C(=O)Cl)cc1.COc1ccccc1C(=O)NS(=O)(=O)c1ccc(C(=O)Cl)cc1
160	n/a	1.55	-3.067	n/a	n/a	C/C=C/C1CCC(C[P+](c2ccccc2)(c2ccccc2)c2ccccc2)CC1.[I-] (stereo partly drawn)
n/a	244.3	2	n/a	-1.673	n/a	CCCCN(C=O)CCCC
-8	n/a	5.9	n/a	n/a	n/a	CCCCCCCCCCC1CO1 (stereo not given)
n/a	301.5	4.58	-3.244	-4.932	n/a	CC(O)COC(C)CO[C@@H]1C[C@H]2CC[C@]1(C)C2(C)C (stereo in doubt)
n/a	n/a	2.44	-4.28	-7.985	n/a	COc1ccc(C)cc1C(CC(=O)O)c1ccccc1 (stereo not given)
n/a	n/a	4.33	-3.875	n/a	n/a	CC(=O)OC1C(C)(C)[C@H]2CC[C@]1(C)C2 (stereo partly specified)
n/a	n/a	-0.11	-2.061	-9.907	n/a	Cc1ccc(/N=N/c2c(O)c(C(=O)[O-])cc3ccccc23)c(S(=O)(=O)[O-])c1.[Na+].[Na+]
n/a	n/a	-5.1	-3.25	n/a	n/a	CCN(CCNS(C)(=O)=O)c1ccc(N)c(C)c1.CCN(CCNS(C)(=O)=O)c1ccc(N)c(C)c1.O=S(=O)(O)O.O=S(=O)(O)O.O=S(=O)(O)O
n/a	n/a	4.1	-3.297	-2.843	n/a	CC(=O)C=CC=C(C)CCC=C(C)C
103.2	n/a	3.6	-4.534	n/a	n/a	COC(=O)C(CNC(=O)c1ccccc1C(F)(F)F)(C(=O)OC)c1ncc(C(F)(F)F)cc1Cl
n/a	n/a	n/a	-4.978	-9.594	n/a	c1cc(C2(c3ccc(OCC4CO4)cc3)CCCCC2)ccc1OCC1CO1 (stereo not given)
48.12	n/a	1.92	-2.795	-5.132	n/a	O=C(CS)OCC(COC(=O)CS)(COC(=O)CS)COC(=O)CS
n/a	n/a	n/a	-4.5	n/a	0.05	Cc1onc(-c2ccccc2Cl)c1C(=O)N[C@@H]1C(=O)N2[C@@H]1SC(C)(C)[C@@H]2C(=O)O
232.5	n/a	1.298	-3.86	n/a	n/a	C[C@@H]1C[C@H]2[C@@H]3C[C@H](F)C4=CC(=O)C=C[C@]4(C)[C@@]3(F)[C@@H](O)C[C@]2(C)[C@@]1(O)C(=O)S

4 of these entries, quoted again:

{"smiles": "Cc1nc(C)n(C)c1C", "melting point (°C)": "147.1", "logP": "2.58", "vapor pressure (log10 mmHg)": "-0.824"}
{"smiles": "COc1ccccc1C(=O)NS(=O)(=O)c1ccc(C(=O)Cl)cc1.COc1ccccc1C(=O)NS(=O)(=O)c1ccc(C(=O)Cl)cc1", "melting point (°C)": "148", "vapor pressure (log10 mmHg)": "-9.546"}
{"smiles": "C=COCC1CCC(COC=C)CC1", "stereo": "stereo not given", "bp (°C)": "253", "logP": "3.65", "water solubility (log10 mol/L)": "-3.927", "vapor pressure (log10 mmHg)": "-1.582"}
{"smiles": "COc1ccc(C)cc1C(CC(=O)O)c1ccccc1", "stereo": "stereo not given", "logP": "2.44", "water solubility (log10 mol/L)": "-4.28", "vapor pressure (log10 mmHg)": "-7.985"}